One substance from US10150792B2, “Bismuth-containing compounds, coordination polymers, methods for modulating pharmacokinetic properties of biologically active agents, and methods for treating patients” (priority 2010, dated 2018) can be followed below.

The format of this series is in vivo. Conditions: rat, oral. On the procedure:
Method for Rat Pharmacokinetic Studies: Rat “feed and bleed” studies were performed with LD and synthetically prepared LD:metal complexes wherein key PK parameters, such as maximum concentration (Cmax), AUC, and time of maximum concentration (tmax) were measured vis-à-vis the reference drug, LD.
In each experiment, male Sprague-Dawley rats with jugular vein catheters (250-300 g; n=5-10) are used. These rats were obtained from a commercial source (Harlan Laboratory Animals, Dublin, Va.) and housed individually. Water was available ad libitum. Rats were fed certified rodent chow ad libitum. After arrival, the health of rats was assessed and animals were placed in quarantine for a minimum of five days during which time general health was assessed. At the end of quarantine, rats were moved to permanent animal quarters for access and study.
All studies employed oral dosing using size 9 rodent gelatin capsules from Torpac (Fairfield, N.J.). […] Plasma samples are then treated according to developed methodology (e.g., FEBS Lett., 2002, 524 (1-3), 199-203), and analyzed (LC/MS/MS) for drug concentrations. Average plasma values (±SEM) for each time are calculated and PK parameters, including Cmax, tmax, and total amount absorbed (AUC0-6h), are determined using standard software. […]

In the case of tris(LD)bismuth oxide [Bi(O)(dopa)3], the “tmax relative to LD/carbidopa” value is reported as “later tmax”.
